Experimental data published in US11185532B2, “Methods of treating pruritus” (Clexio Biosciences Ltd., priority 2019, dated 2021).

Amino acid sequences for entries named in this document (tags omitted).
UniProt P18089, whole entry: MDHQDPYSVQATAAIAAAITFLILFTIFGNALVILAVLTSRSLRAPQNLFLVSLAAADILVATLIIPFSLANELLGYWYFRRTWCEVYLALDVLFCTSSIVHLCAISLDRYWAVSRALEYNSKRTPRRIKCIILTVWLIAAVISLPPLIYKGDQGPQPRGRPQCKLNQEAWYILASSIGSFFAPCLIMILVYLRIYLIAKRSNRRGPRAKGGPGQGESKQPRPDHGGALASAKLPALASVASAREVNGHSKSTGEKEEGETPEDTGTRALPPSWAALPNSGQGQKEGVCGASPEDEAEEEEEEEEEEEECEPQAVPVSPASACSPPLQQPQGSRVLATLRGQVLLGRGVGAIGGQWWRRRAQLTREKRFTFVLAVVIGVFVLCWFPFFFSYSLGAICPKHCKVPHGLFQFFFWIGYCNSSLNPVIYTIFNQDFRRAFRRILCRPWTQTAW
UniProt P08913, whole entry: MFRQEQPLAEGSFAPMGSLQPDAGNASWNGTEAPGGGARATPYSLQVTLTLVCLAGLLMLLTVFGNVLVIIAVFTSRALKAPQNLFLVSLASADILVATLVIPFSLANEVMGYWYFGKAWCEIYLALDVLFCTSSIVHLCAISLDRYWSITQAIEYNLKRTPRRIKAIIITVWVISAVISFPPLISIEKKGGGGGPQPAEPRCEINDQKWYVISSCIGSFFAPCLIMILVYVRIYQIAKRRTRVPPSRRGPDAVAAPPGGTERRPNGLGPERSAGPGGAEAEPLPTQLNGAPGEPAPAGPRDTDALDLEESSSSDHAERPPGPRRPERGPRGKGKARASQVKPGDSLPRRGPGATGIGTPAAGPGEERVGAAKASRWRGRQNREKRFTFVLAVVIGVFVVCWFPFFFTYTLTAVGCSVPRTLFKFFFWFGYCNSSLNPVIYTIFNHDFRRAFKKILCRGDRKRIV
UniProt P18825, whole entry: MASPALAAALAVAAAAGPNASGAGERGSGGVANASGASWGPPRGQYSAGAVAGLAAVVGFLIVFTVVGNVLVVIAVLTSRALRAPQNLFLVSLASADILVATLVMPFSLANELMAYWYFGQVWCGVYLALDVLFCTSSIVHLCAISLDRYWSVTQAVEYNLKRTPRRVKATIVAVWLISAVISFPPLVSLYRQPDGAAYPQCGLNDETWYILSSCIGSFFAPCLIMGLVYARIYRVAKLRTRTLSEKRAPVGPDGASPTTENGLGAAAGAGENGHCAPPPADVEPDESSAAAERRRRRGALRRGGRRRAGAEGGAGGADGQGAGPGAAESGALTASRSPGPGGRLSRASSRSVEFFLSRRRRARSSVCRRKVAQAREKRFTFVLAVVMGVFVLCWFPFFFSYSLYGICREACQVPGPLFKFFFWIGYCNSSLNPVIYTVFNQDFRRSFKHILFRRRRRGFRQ

What was measured:
Adrenergic α2B [1] = biological target: T1, Adrenergic α2B (Homo sapiens, UniProt P18089); test: biochemical
Adrenergic α2B [2] = biological target: T1, Adrenergic α2B; test: cell-based
Adrenergic α2A [3] = biological target: T2, Adrenergic α2A (Homo sapiens, UniProt P08913); test: cell-based
Adrenergic α2A [4] = biological target: T2, Adrenergic α2A; test: biochemical
Adrenergic α2C [5] = biological target: T3, Adrenergic α2C (Homo sapiens, UniProt P18825); test: biochemical
Adrenergic α2C [6] = biological target: T3, Adrenergic α2C; test: cell-based

Cc1cccc(Cc2c[nH]cn2)c1C [detomidine]
inhibition at 10 µM (Adrenergic α2B [1]): 104%
EC50 (Adrenergic α2B [2]): 36 nM
EC50 (Adrenergic α2A [3]): 23.5 nM
inhibition at 10 µM (Adrenergic α2A [4]): 97%
inhibition at 10 µM (Adrenergic α2C [5]): 100%
EC50 (Adrenergic α2C [6]): 0.3 nM
